# In patent US11192890B2, “FGFR kinase inhibitors and pharmaceutical uses” (AUCKLAND UNISERVICES LIMITED, priority 2017, dated 2021):
# Test system: phosphorylation of FGFR2 and ERK1/2 in SUM52 cells
# Details: for concentration giving complete blockade of FGFR2 and ERK1/2 activation (FGF signalling fully silenced): FGF-stimulated SUM52 cells, Western blot
SMILES,concentration giving complete blockade of FGFR2 and ERK1/2 activation (FGF signalling fully silenced) [nM],fold less potent than FGFR inhibitor compound 112 at inhibiting the phosphorylation of FGFR2 and ERK1/2 (SUM52 cells)
"CNc1ncc2c(n1)N([C@H]1CCN(C(=O)/C=C/CN(C)C)C1)C(=O)N(c1c(Cl)c(OC)cc(OC)c1Cl)C2 [Compound 103, (S,E)-3-(2,6-dichloro-3,5-dimethoxyphenyl)-1-(1-(4-(dimethylamino)but-2-enoyl)pyrrolidin-3-yl)-7-(methylamino)-3,4-dihydropyrimido[4,5-d]pyrimidin-2(1H)-one]",30,
"COc1cc(OC)c(Cl)c(N2Cc3cnc(Nc4ccccc4)nc3N([C@H]3CCN(C(=O)/C=C/CN(C)C)C3)C2=O)c1Cl [Compound 106, (S,E)-3-(2,6-dichloro-3,5-dimethoxyphenyl)-1-(1-(4-(dimethylamino)but-2-enoyl)pyrrolidin-3-yl)-7-(phenylamino)-3,4-dihydropyrimido[4,5-d]pyrimidin-2(1H)-one]",30,
"COc1cc(OC)c(Cl)c(N2Cc3cnc(Nc4ccccc4)nc3N(C3CCN(C(=O)/C=C/C[N+](C)(C)Cc4c([N+](=O)[O-])ncn4C)CC3)C2=O)c1Cl.[Br-] [Compound 204, (E)-4-(4-(3-(2,6-dichloro-3,5-dimethoxyphenyl)-2-oxo-7-(phenylamino)-3,4-dihydropyrimido[4,5-d]pyrimidin-1(2H)-yl)piperidin-1-yl)-N,N-dimethyl-N-((1-methyl-4-nitro-1H-imidazol-5-yl)methyl)-4-oxobut-2-en-1-aminium bromide]",3000,approximately 100 fold
